{
  "sequences": {"note": "The chains behind the UniProt entries cited, without tags or fusion partners.", "UniProt Q92847, whole entry": "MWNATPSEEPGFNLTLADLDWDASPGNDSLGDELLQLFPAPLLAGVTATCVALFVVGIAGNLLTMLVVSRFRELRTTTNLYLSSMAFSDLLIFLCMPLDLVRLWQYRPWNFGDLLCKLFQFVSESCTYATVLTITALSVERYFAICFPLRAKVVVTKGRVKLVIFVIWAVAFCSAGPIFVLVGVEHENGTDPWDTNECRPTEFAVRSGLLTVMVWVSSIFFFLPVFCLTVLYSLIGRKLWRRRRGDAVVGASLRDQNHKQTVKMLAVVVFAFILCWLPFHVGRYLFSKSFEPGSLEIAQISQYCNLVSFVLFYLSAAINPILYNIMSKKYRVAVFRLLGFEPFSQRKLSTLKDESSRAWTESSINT", "UniProt O08725, whole entry": "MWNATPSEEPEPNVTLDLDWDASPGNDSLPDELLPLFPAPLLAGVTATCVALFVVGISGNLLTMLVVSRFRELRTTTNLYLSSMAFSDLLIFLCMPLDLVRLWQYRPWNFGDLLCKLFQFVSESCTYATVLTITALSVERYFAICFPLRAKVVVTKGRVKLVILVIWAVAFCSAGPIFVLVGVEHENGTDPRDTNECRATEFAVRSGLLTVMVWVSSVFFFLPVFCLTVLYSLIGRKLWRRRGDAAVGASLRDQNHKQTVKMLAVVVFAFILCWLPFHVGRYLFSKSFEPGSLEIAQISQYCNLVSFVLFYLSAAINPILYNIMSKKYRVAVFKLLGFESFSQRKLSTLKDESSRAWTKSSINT"},
  "source": "patent US20080269116A1",
  "about": "“Methods of Inhibiting Proinflammatory Cytokine Expression Using Ghrelin” (priority 2004, published 2008)",
  "key": {"[1]": {"target": "T1, GHS-R (Homo sapiens, UniProt Q92847)", "T1 construct": "endogenous in cells; host or cells: cultured human T cells", "assay": "Intracellular calcium mobilization in cultured human T cells (Fura-2)", "type": "cell-based", "settings": "ghrelin 100 ng/ml", "experimental": "Intracellular calcium mobilization. […] Cells were incubated in PBS containing 5 μM Fura-2 AM for 30 minutes at room temperature. The cells were subsequently washed and then resuspended at 1×10^6/mL in PBS. A total of 2 mL of the cell suspension was placed in a continuously stirring cuvette at room temperature in an LS50B spectrophotometer (Perkin-Elmer, Wellesley, Mass.). Fluorescence was monitored at λex1=340 nm, λex2=380 nm, and λem=510 nm. The data are presented as the relative ratio of fluorescence excited at 340 and 380 nm."}, "[2]": {"target": "T2, GHS-R (Rattus norvegicus, UniProt O08725)", "T2 construct": "host or cells: CHO cells transfected with GHS-R (Kojima et al. 1999)", "settings": "GHS-R-transfected Chinese Hamster Ovary (CHO) cells; cited from earlier work"}},
  "data": [
    {"substance": "ghrelin", "values": [
      {"measurement": "rise in intracellular [Ca^2+]", "setting": "[1]", "result": "significant and specific rise in intracellular [Ca^2+]"},
      {"measurement": "intracellular calcium release", "setting": "[2]", "result": "induce intracellular calcium release"}
    ]}
  ]
}
